Laboratory results taken from patent publication US5686495A, “Substituted hydrazinedicarboximidamides and methods of use thereof” (Cambridge NeuroScience, Inc., priority 1995, dated 1997).

System: 3H-glutamate release from rat brain synaptosomes
Test: Inhibition of K+-evoked 3H-glutamate release from synaptosomes (rapid superfusion)
Format: cell-based
Conditions: 100 μM; Control = 100; K+ depolarization
Description: To study the release of presynaptic ^3 H-glutamate, synaptosomes from young rats were used. CD Male rats of 4 to 6 weeks (50-75 g) were used for the preparation of synaptosomes. Rats were killed by decapitation with guillotine and the skull bone was opened in the center with the pointed blade of dissection scissors. The bone is then peeled away with a bone cutter and the brain is pried with a micro spatula. The cerebellum is removed and the rest of the brain is placed in 35 ml of 0.32M Sucrose solution and homogenized in a Thomas glass teflon homogenizer C at the maximum power setting (about 450 rpm) with 16 strokes. The pestle is rinsed with 5 ml of sucrose solution and added to the homogenate. The homogenate is centrifuged for 10 min at 3500 rpm (1500 g) in a SS-34 rotor in Sorvall RC-5B. The resulting pellet (P1) is discarded and the supernatant (S1) is recentrifuged for 20 min at 8700 rpm (8500 g). The supernatant (S2) is discarded and the pellet (P2) is resuspended in 5 ml of 0.32M sucrose and hand homogenized with 4 strokes (Thomas C) and the volume was made up to 8 ml. This homogenate was layered on 20 ml of 0.8M sucrose solution in two centrifuge tubes and spun for 25 minutes at 8700 rpm (8500 g). At the end of this spin, most of the myelin stays at the interphase of 0.32M and 0.8M sucrose and mitochondria pellet as a brown pellet. […]

N,N-di-(3-methylphenyl)guanidine was tested, and the “relative level of glutamate release” value was 106.
